# Conditions: heat molded pellets of the heterodimer, PBS and/or 100% FBS, 37° C.
substance,measurement,value
Dexamethasone-Triethylene Glycol-Hydrocortisone [Compound 4],drugs released from pellets,released both dexamethasone and hydrocortisone

# Reference: US11612567B2, “Ocular inserts comprising a covalently linked steroid dimer” (Ripple Therapeutics Corporation, priority 2018, dated 2023)
